Data set [1] concerns methicillin-resistant S. aureus (MRSA) clinical isolates. Format: cell-based, Staphylococcus aureus.
Data set [2] concerns Mycobacterium bovis BCG.
Data set [3] deals with M. abscessus clinical isolates. It is filed as cell-based, Mycobacterium abscessus.
The conditions of data set [4]: pH 5.5, ref Boge et al., 2018; cited from earlier work. From the text: The peptide NZ2114 ([…]) was manufactured by solid phase peptide synthesis, followed by cyclisation of three natural occurring di-sulphide bonds and purification by sequential chromatography steps (PolyPeptide Laboratories AB, Limhamn, Sweden). The purity (>97%) of the peptide was confirmed by high-performance liquid chromatography. The peptide has a molecular weight of 4,411 Da and net charge +4.6 at pH 5.5 ([Boge et al., 2018]).

The subject of data set [5] is methicillin-susceptible S. aureus clinical isolates. Format: cell-based, Staphylococcus aureus.
Data set [6] has as its system BCG in primary human macrophages. It is filed as cell-based, Mycobacterium bovis.

≈ marks a conversion by molar mass, not a printed value.

The term MIC99 denotes the lowest concentration that inhibits either 99% of growth or 99% of the strains tested, depending on the study. Lower therefore signals higher susceptibility. The MIC90 is an inhibitory concentration at the 90% level, which refers to growth in some studies and to a panel of isolates in others. Read a high MIC90 as lower susceptibility. Consider `CC[C@H](C)[C@@H]1NC(=O)[C@H](CO)NC(=O)[C@H](CCCCN)NC(=O)[C@@H]2CSSC[C@@H](C(=O)N[C@@H](Cc3ccc(O)cc3)C(=O)O)NC(=O)[C@H](CCCCN)NC(=O)[C@@H]3CSSC[C@H](NC(=O)[C@H](CCCNC(=N)N)NC(=O)[C@H](CC(C)C)NC(=O)[C@H](CC(=O)O)NC(=O)[C@H](CC(=O)O)NC(=O)[C@H](CCC(=O)O)NC(=O)[C@H](CC(N)=O)NC(=O)[C@H](Cc4c[nH]c5ccccc45)NC(=O)[C@@H]4CCCN4C(=O)CNC(=O)[C@H](CC(N)=O)NC(=O)[C@@H](NC(=O)CNC(=O)[C@H](Cc4ccccc4)NC(=O)CN)CSSC[C@H](NC(=O)[C@H](Cc4ccc(O)cc4)NC(=O)CNC(=O)CNC(=O)[C@H](CCCCN)NC(=O)[C@H](Cc4ccc(O)cc4)NC(=O)CNC(=O)[C@H](CCCCN)NC1=O)C(=O)N[C@@H](C)C(=O)N[C@@H](CCCCN)C(=O)NCC(=O)NCC(=O)N[C@@H](Cc1ccccc1)C(=O)N[C@@H](C(C)C)C(=O)N3)C(=O)N[C@@H](Cc1c[nH]cn1)C(=O)N[C@@H](CC(N)=O)C(=O)N[C@@H](Cc1c[nH]cn1)C(=O)N2` [NZ2114], for which the MIC99 in data set [1] and in data set [5] was 0.3 µM (≈ 1.32 µg/mL) throughout. Also, the MIC90 in data set [2] came out at 6.1 µM (≈ 26.9 µg/mL). Besides, in data set [3], the “MIC99 (mean)” value came to 75 µM (≈ 331 µg/mL). For the same compound, the net charge entry in data set [4] was “+4.6”. For the same compound, the “maximum reduction in intracellular bacterial load” value in data set [6] came out at 89%.

These data come from publication PMC12241124 (Frontiers in Microbiology, 2025).
